Apparent affinities of Ab-14 variants for a coronavirus HR2 peptide

The measurements come from Li et al. 2023 (doi:10.1038/s41467-023-39022-2) through the FLAb antibody collection.

Target: peptide PDVDLGDISGINAS, taken from heptad repeat 2 (HR2) of SARS-CoV-2 spike.

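The parent was found by panning a naive human phage display library on the peptide. This is the validation round: designs drawn from the data on random variants, tested in the same kind of assay. Their group label is 14H_En_Gen (En: ensemble of fine-tuned language models; Gen: genetic algorithm). Affinity was read by AlphaSeq, a pooled yeast mating assay with surface-displayed partners. Binding brings cells together so that they mate, and sequencing counts the barcode pairs among the diploids. Scores were corrected for input abundance and mapped to Kd with protein pairs of known affinity run in the same pool. Mating was done six times.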

Ab-14 is the parent antibody, in scFv form: VH, then a (GGGGS)3 linker, then VL. The light chain is unchanged in all variants.
VH: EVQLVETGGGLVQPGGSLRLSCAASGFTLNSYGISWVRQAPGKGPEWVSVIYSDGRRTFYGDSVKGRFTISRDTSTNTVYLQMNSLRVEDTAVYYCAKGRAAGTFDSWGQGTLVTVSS
VL: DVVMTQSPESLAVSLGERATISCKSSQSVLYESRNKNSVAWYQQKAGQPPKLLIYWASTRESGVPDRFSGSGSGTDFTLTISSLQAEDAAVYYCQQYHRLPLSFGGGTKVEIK

Each variant is given by its three heavy chain CDRs, as the data file delimits them; those of the parent are GFTLNSYGIS, VIYSDGRRTFYGDSVK, GRAAGTFDS. Scale: log10 of Kd in nM, estimated from mating counts; low values are strong binders. A pair that was not seen in that replicate is written "n.d."; this usually means weak binding, but a binder can also be missed.

| # | CDR-H1 | CDR-H2 | CDR-H3 | log10 Kd (nM) by replicate | signal with controls |
|---|---|---|---|---|---|
| 1 | GFDLDEYGIS | VIYADGRRTAYADDVK | GQNAGTFDV | 0.28 / -0.61 / -0.74 / -0.53 / 0.01 / -0.22 | 0 of 18 |
| 2 | GFDLNEYGIS | VIYADGMRTAYSDSVK | GEVAGTFDM | -0.34 / -0.29 / -0.58 / -0.52 / -0.54 / -0.07 | 1 of 18 (0.95) |
| 3 | GFDLNEYGIS | VIYADGMRTFYADKVK | GENAGTFDV | -0.15 / -0.26 / -0.49 / -0.63 / -0.21 / -0.15 | 1 of 18 (1.56) |
| 4 | GFDLNEYGIS | VIYADGQRTAYSDSVK | GEVAGTFDL | -0.49 / -0.68 / -0.63 / -0.47 / -0.46 / -0.40 | 0 of 18 |
| 5 | GFDLNEYGIS | VIYADGQRTAYSDSVK | GETAGTFDQ | -0.56 / -0.56 / -0.92 / -0.60 / -0.55 / -0.51 | 0 of 18 |
| 6 | GFDLNEYGIS | VIYADGSRTAYADSVK | GQVAGTFDL | -0.14 / -0.44 / -0.46 / -0.28 / -0.54 / -0.11 | 0 of 18 |
| 7 | GFNLDEYGIS | VIYADGKRTAYADSVK | GEVAGTFDV | 0.46 / 0.54 / -0.34 / -0.17 / 0.05 / 0.52 | 0 of 18 |
| 8 | GFNLDEYGIS | VIYADGRRTAYADSVK | GENAGTFDV | -0.75 / -1.21 / -1.34 / -0.27 / -1.47 / -1.15 | 0 of 18 |
| 9 | GFDLDEYGIS | VIYADGMRTAYADDVK | GNTAGTFDV | -0.36 / -0.34 / -0.28 / -0.50 / -0.15 / -0.87 | 0 of 18 |
| 10 | GFDLDEYGIS | VIYADGVRTAYADSVK | GNTAGTFDV | -0.68 / -0.35 / -0.45 / -0.59 / -1.13 / -0.48 | 0 of 18 |
| 11 | GFDLEEYGIS | VIYADGMRTAYADSVK | GENAGTFDL | -0.15 / 0.10 / -0.11 / -0.19 / 0.06 / 0.06 | 1 of 18 (2.38) |
| 12 | GFDLDEYGIS | VIYADGMRTAYADSVK | GENAGTFVM | n.d. / n.d. / n.d. / n.d. / n.d. / n.d. | 0 of 18 |
| 13 | GFDLNEYGIS | VIYADGKRTFYADSVK | GNVAGTFDI | -0.48 / -0.49 / -0.31 / -0.59 / -0.69 / -0.25 | 1 of 18 (1.89) |
| 14 | GFDLNEYGIS | VIYADGMRTYYADSVK | GENAGTFDI | -0.15 / 0.17 / 0.21 / 1.14 / 0.04 / 0.58 | 0 of 18 |
| 15 | GFDLNEYGIS | VIYADGQRKAYADSVK | GNVAGTFDQ | -0.73 / -0.81 / -1.05 / -0.90 / -0.99 / -0.71 | 0 of 18 |
| 16 | GFNLDEYGIS | VIYADGMRTAYADSVK | GENAGTFDL | 0.45 / 0.07 / -0.28 / -0.16 / 0.02 / 0.08 | 0 of 18 |
| 17 | GFDLNEYGIS | VIYADGLRTAYADSVK | GENAGTFDL | -0.91 / -1.03 / -0.27 / -0.83 / -0.78 / -0.80 | 0 of 18 |
| 18 | GFDLDEYGIS | VIYADGMRTAYADSVK | GNNAGTFDV | -0.08 / -0.10 / -0.14 / 0.14 / -0.28 / -0.09 | 0 of 18 |
| 19 | GFDLNEYGIS | VIYADGKRTFYADSVK | GSNAGTFDV | -0.47 / -0.43 / -0.54 / -0.81 / -0.52 / -0.16 | 0 of 18 |
| 20 | GFDLNEYGIS | VIYADGVRTAYADSVK | GEVAGTFDM | -2.05 / -0.02 / -1.87 / -1.84 / -2.11 / -0.09 | 0 of 18 |
| 21 | GFDLNEYGIS | VIYADGMRTYYSDSVK | GQNAGTFDV | -0.53 / 0.19 / -0.43 / -0.63 / -0.44 / -0.53 | 0 of 18 |
| 22 | GFDLNEYGIS | VIYADGMRTAYTDSVK | GEVAGTFDT | 0.18 / 0.83 / 0.68 / 0.40 / 1.27 / 0.60 | 0 of 18 |
| 23 | GFDLDEYGIS | VIYADGRRTAYADSVK | GNNAGTFDL | -0.65 / -0.74 / -0.87 / -1.19 / -0.72 / -0.93 | 1 of 18 (0.96) |
| 24 | GFDLNEYGIS | VIYADGMRTAYIDSVK | GQNAGTFDL | -0.33 / -0.07 / -0.56 / -0.49 / -0.23 / -0.26 | 0 of 18 |
| 25 | GFDLDEYGIS | VIYADGQRTAYADSVK | GNVAGTFDV | -0.26 / -0.27 / -0.18 / -0.57 / -0.38 / -0.32 | 1 of 18 (2.67) |
| 26 | GFDLNEYGIS | VIYADGMRTFYADSVK | GETAGTFDL | -0.60 / -0.38 / -0.49 / -1.08 / -0.70 / -0.88 | 0 of 18 |
| 27 | GFDLNEYGIS | VIYADGMRTAYQDSVK | GGNAGTFDV | -0.61 / -0.74 / -0.90 / -0.73 / -0.66 / -0.72 | 0 of 18 |
| 28 | GFDLNEYGIS | VIYADGMRTAYADSVK | GNNAGTFDT | -0.41 / -0.48 / -0.40 / -0.76 / -0.74 / -0.68 | 0 of 18 |
| 29 | GFDLNEYGIS | VIYADGMRTSYSDSVK | GEVAGTFDV | -0.28 / -0.55 / -0.68 / -0.23 / -0.35 / -0.15 | 0 of 18 |
| 30 | GFDLNEYGIS | VIYADGQRTFYADSVK | GNQAGTFDV | -0.09 / 0.00 / -0.43 / -0.78 / -0.89 / -0.74 | 0 of 18 |
| 31 | GFDLEDYGIS | VIYADGMRTAYTDSVK | GNVAGTFDI | 0.04 / -0.03 / -0.24 / -0.41 / -0.23 / 0.21 | 0 of 18 |
| 32 | GFDLNEYGIS | VIYADGVRTAYSDSVK | GETAGTFDI | -0.07 / -0.38 / -0.20 / -0.36 / -0.33 / -0.48 | 0 of 18 |
| 33 | GFDLNEYGIS | VIYADGIRTAYADSVK | GNTAGTFDV | 0.02 / -0.28 / -0.48 / -0.54 / -0.49 / -0.04 | 0 of 18 |

The 4 strongest on average among those seen in every replicate, once more:

| CDR-H1 | CDR-H2 | CDR-H3 | log10 Kd (nM) by replicate | signal with controls |
|---|---|---|---|---|
| GFDLNEYGIS | VIYADGVRTAYADSVK | GEVAGTFDM | -2.05 / -0.02 / -1.87 / -1.84 / -2.11 / -0.09 | 0 of 18 |
| GFNLDEYGIS | VIYADGRRTAYADSVK | GENAGTFDV | -0.75 / -1.21 / -1.34 / -0.27 / -1.47 / -1.15 | 0 of 18 |
| GFDLNEYGIS | VIYADGQRKAYADSVK | GNVAGTFDQ | -0.73 / -0.81 / -1.05 / -0.90 / -0.99 / -0.71 | 0 of 18 |
| GFDLDEYGIS | VIYADGRRTAYADSVK | GNNAGTFDL | -0.65 / -0.74 / -0.87 / -1.19 / -0.72 / -0.93 | 1 of 18 (0.96) |

Of ten entries with the parent sequence, four were seen in most replicates (averages 0.34 to 2.37), three in one and three in none, so single entries are noisy. Values of this round are not directly comparable with the first-round values of the same sequences. The authors' rule: three or more of the six replicates give a measured affinity, fewer mean a poor binder. Empty control strains, which show no peptide, gave a signal in 1% of pairings with all heavy chain designs; the median was 2.08 and 95% of these signals were weaker than 0.84. No background was subtracted. For each scFv, signals with the empty controls are counted beside the result, with their mean in brackets.